Data as given in patent US20210253598A1, “ARYL ANNULATED MACROCYCLIC INDOLE DERIVATIVES” (priority 2017, published 2021).
Structures can show the parent of a compound that is named as a salt. Where two headings read alike, the source gives them in different places.

Experiments:
MCL-1 = MCL-1 (Homo sapiens, UniProt Q07820, K194A/K197A/R201A); assay: Protein-protein interaction assay MCL-1/Noxa BH3 peptide, TR-FRET (MCL-1 assay, Assay 1); type: binding; conditions: MCL-1 Assay [M] (median), MBP-MCL-1 / Noxa BH3 peptide
Experimental: The dose-dependent inhibition by the compounds described in this invention of the interaction between MCL-1 and the BH3 domain of Noxa (both human) was determined using a steady state binding competition assay with time-resolved fluorescence energy transfer (TR-FRET) readout. For that purpose MCL-1 (amino acids 173-321, N-terminal fused to Maltose Binding Protein (MBP), SEQ ID 1) and a synthetic Noxa BH3-derived peptide of sequence Biotin-PEG2-PEG2-PAELEVE-Nva-[…]-amide (SEQ ID 2) served as protein receptor and tracer ligand respectively. The MBP-MCL-1 was purchased from Beryllium (Bedford, Mass., USA). The expression and purification of this protein construct has been described elsewhere (DOI:10.1371/journal.pone.0125010). The Noxa BH3-derived peptide can be obtained from e.g. Biosyntan (Berlin, Germany).
For that, 100-fold concentrated DMSO solutions were prepared by serial dilutions (1:3.4) of a 2 mM stock solution in a clear, 384-well microtiter plate (Greiner Bio-One, Frickenhausen, Germany). From there, 50 nl were transferred in a dark test plate (Greiner Bio-One, Frickenhausen, Germany). The assay was initiated by addition of 2 μl of a 2,5-fold concentrated MBP-MCL-1 solution (usually for a 1 nM end concentration in 5 μl reaction volume) in aqueous assay buffer [50 mM Tris/HCl pH 7, 100 mM sodium chloride (NaCl), 50 mM potassium fluoride (KF), 0.005% Tween-20, 2 mM DTT, 0.1% bovine gamma globulin (BGG)] to the compounds in the assay plate. This was followed by a 10-minute incubation step at 22° C. for pre-equilibration of the putative complex between MBP-MCL-1 and the compounds.
The mixture was incubated in the dark for one hour at 22° C. and then overnight at 4° C. The formation of MCL-1/Noxa complexes was determined by measuring the resonance energy transfer of the anti-MBP-Eu-cryptate antibody to the streptavidin-XL665 present in the reaction. For that purpose, the fluorescence emission at 620 nm and 665 nm after excitation at 330-350 nm was measured in a TR-FRET measuring instrument, for instance a Rubystar or a Pherastar (both from BMG Lab Technologies, Offenburg, Germany) or a Viewlux (Perkin-Elmer). The ratio of the emission at 665 nm and at 622 nm was used as indicator of the amount of MCL-1/NOXA complexes present.
The resulting data (ratio) were normalized, taking 0% inhibition as the mean value of control measurements (usually 32 data points) where all reagents were included. In this case 50 nl DMSO were used instead of compounds. […] IC50 values were determined by regression analysis based on a 4 parameter equation (minimum, maximum, IC50, Hill; Y=Max+(Min−Max)/(1+(X/IC50)^Hill) using the Screener Software (Genedata).

SUDHL5 = assay: Induction of cytotoxicity in SUDHL5 cells, CellTiter-Glo (Assay 6); type: cell-based; conditions: SUDHL5, 5 hours incubation, median, read-out: Cytotox SUDHL5 [M] (median)
Experimental: (§1) Induction of Cytotoxicity Upon Treatment of Cells with Selected Compounds
(§2) In principle, compounds that induce apoptosis will concomitantly induce cell cytotoxicity. Therefore, cytotoxicity assays were run in parallel in SUDHL5 and SUDHL10 cells.
(§3) As a control, medium without cells was also added to the plate. Cells were incubated in a humidified incubator at 37° C. overnight. […] Rim wells were excluded. The cells were incubated for 5 hours in a humidified incubator at 37° C. After this incubation, 30 μl of CellTiter-Glo® Luminescent Cell Viability reagent (Promega, G7573) was added to each well using the Multidrop Combi Reagent Dispenser, followed by 15 minutes incubation on a shaker at room temperature. Finally, luminescence was read at 0.1 ms, with a gain of 3000 using the PHERAstar FS microplate reader (BMG Labtech).

SUDHL10 = assay: Induction of cytotoxicity in SUDHL10 cells, CellTiter-Glo (Assay 6); type: cell-based; conditions: Homo sapiens, SU-DHL10, 5 h, SUDHL10, 5 hours incubation, median, read-out: Cytotox SUDHL10 [M] (median)
Experimental: as §1, §2, §3

Compound	IC50 (MCL-1) [M]	further results
Cc1c2c(nn1C)COCc1ncccc1Cn1c(C(=O)O)c(CCCOc3cccc4ccccc34)c3cccc-2c31 (racemic) [Example 7, (rac)-4,5-Dimethyl-17-[3-(naphthalen-1-yloxy)propyl]-5,7,9,14-tetrahydropyrazolo[4′,3′:9,10]-pyrido[2′,3′:3,4][1,6]oxazacycloundecino[8,7,6-hi]indole-16-carboxylic Acid]	1.7e-09	–
Cc1c2c(nn1C)COCc1nc3ccccc3nc1Cn1c(C(=O)O)c(CCCOc3cccc4ccccc34)c3cccc-2c31 (racemic) [Example 10, (rac)-4,5-Dimethyl-19-[3-(naphthalen-1-yloxy)propyl]-5,7,9,16-tetrahydroindolo[1′,7′:6,7,8]-pyrazolo[4′,3′:9,10][1,6]oxazacycloundecino[3,4-b]quinoxaline-18-carboxylic Acid]	2.8e-09	–
Cc1c2c(nn1C)CNCc1ccccc1Cn1c(C(=O)O)c(CCCOc3cccc4ccccc34)c3cccc-2c31 (racemic) [Example 11, (rac)-4,5-Dimethyl-17-[3-(naphthalen-1-yloxy)propyl]-7,8,9,14-tetrahydro-5H-indolo[1,7-bc]pyrazolo[4,3-e][2,8]benzodiazacycloundecine-16-carboxylic Acid]	5.4e-09	–
CCc1nn(C)c2c1-c1c(Cl)ccc3c(CCCOc4cccc5cc(F)ccc45)c(C(=O)O)n(c13)Cc1ccccc1COC2 (racemic) [Example 57, (rac)-3-Chloro-4-ethyl-17-{3-[(6-fluoronaphthalen-1-yl)oxy]propyl}-6-methyl-6,7,9,14-tetrahydro-indolo[7,1-fg]pyrazolo[3,4-d][2,8]benzoxazacycloundecine-16-carboxylic Acid]	–	IC50 (SUDHL5; Homo sapiens, SU-DHL-5, 5 h): 1.7e-06 M
Cc1c2c(nn1C)COCc1ccccc1Cn1c(C(=O)O)c(CCCOc3cccc4ccccc34)c3ccc(F)c-2c31 (racemic) [Example 67, (rac)-15-Fluoro-13,14-dimethyl-1-(3-(naphthalen-1-yloxy)propyl)-4,9,11,13-tetrahydrobenzo[3,4]pyrazolo[4′,3′:9,10][1,6]oxaazacycloundecino[8,7,6-hi]indole-2-carboxylic Acid]	1.7e-09	–
CCc1c2c(nn1C)COCc1ccccc1Cn1c(C(=O)O)c(CCCOc3cccc4ccccc34)c3ccc(F)c-2c31 (racemic) [Example 70, (rac)-14-Ethyl-15-fluoro-13-methyl-1-(3-(naphthalen-1-yloxy)propyl)-4,9,11,13-tetrahydrobenzo[3,4]pyrazolo[4′,3′:9,10][1]oxa[6]azacycloundecino[8,7,6-hi]indole-2-carboxylic Acid]	–	IC50 (SUDHL5): 1.7e-06 M
CCc1c2c(nn1C)COCc1ccccc1Cn1c(C(=O)O)c(CCCOc3cccc4c3CCCC4)c3ccc(F)c-2c31 (racemic) [Example 77, (rac)-14-Ethyl-15-fluoro-13-methyl-1-(3-((5,6,7,8-tetrahydronaphthalen-1-yl)oxy)propyl)-4,9,11,13-tetrahydrobenzo[3,4]pyrazolo[4′,3′:9,10][1]oxa[6]azacycloundecino[8,7,6-hi]indole-2-carboxylic Acid]	2.8e-09	–
CCc1nn(C)c2c1-c1c(F)ccc3c(CCCOc4cccc5cc(F)ccc45)c(C(=O)O)n(c13)Cc1ccccc1COC2 (racemic) [Example 90, (rac)-14-Ethyl-15-fluoro-1-(3-((6-fluoronaphthalen-1-yl)oxy)propyl)-12-methyl-4,9,11,12-tetrahydrobenzo[3,4]pyrazolo[4′,3′:9,10][1,6]oxaazacycloundecino[8,7,6-hi]indole-2-carboxylic Acid]	–	IC50 (SUDHL5; Homo sapiens, SU-DHL-5, 5 h): 1.7e-06 M; IC50 (SUDHL10): 3.5e-06 M
Cc1c2c(nn1C)COCc1cccnc1Cn1c(C(=O)O)c(CCCOc3cccc4ccccc34)c3ccc(Cl)c-2c31 (single isomer, unassigned; enantiomer 1) [Example 40, 3-Chloro-4,5-dimethyl-17-[3-(naphthalen-1-yloxy)propyl]-5,7,9,14-tetrahydropyrazolo-[4′,3′:9,10]pyrido[3′,2′:3,4][1,6]oxazacycloundecino[8,7,6-hi]indole-16-carboxylic acid-N-ethylethanamine Salt (Enantiomer 1)]	2.8e-09	–
CCc1c2c(nn1C)COCc1ccccc1Cn1c(C(=O)O)c(CCCOc3cccc4cc(F)ccc34)c3ccc(Cl)c-2c31 (single isomer, unassigned; enantiomer 1) [Example 55, (−)-3-Chloro-4-ethyl-17-{3-[(6-fluoronaphthalen-1-yl)oxy]propyl}-5-methyl-5,7,9,14-tetrahydro-indolo[7,1-fg]pyrazolo[3,4-d][2,8]benzoxazacycloundecine-16-carboxylic Acid N-ethylethanamine Salt (Enantiomer 1)]	1.1e-09	–
